From ChEMBL document CHEMBL5131543, “Studying Lipophilicity Trends of Phosphorus Compounds by 31P-NMR Spectroscopy: A Powerful Tool for the Design of P-Containing Drugs” (J Med Chem, 2022) come the findings set out here.

A short description of this data set: Lipophilicity, logP of compound at pH 7.4 by HPLC analysis. The note with it: buffer.

In general, logP refers to a log measure of how a compound divides between an organic and an aqueous phase.

As for `CCOP(C)(=S)OCC`, the logP worked out at 2.08.
